The results in this text go back to ChEMBL document CHEMBL1128298, “Synthesis and evaluation of pharmacological and pharmacokinetic properties of monopropyl analogs of 5-, 7-, and 8-[[(trifluoromethyl)sulfonyl]oxy]-2-aminotetralins: central dopamine and serotonin receptor activity” (J Med Chem, 1995).

The chains behind the UniProt entries cited, without tags or fusion partners.
UniProt P35462, whole entry: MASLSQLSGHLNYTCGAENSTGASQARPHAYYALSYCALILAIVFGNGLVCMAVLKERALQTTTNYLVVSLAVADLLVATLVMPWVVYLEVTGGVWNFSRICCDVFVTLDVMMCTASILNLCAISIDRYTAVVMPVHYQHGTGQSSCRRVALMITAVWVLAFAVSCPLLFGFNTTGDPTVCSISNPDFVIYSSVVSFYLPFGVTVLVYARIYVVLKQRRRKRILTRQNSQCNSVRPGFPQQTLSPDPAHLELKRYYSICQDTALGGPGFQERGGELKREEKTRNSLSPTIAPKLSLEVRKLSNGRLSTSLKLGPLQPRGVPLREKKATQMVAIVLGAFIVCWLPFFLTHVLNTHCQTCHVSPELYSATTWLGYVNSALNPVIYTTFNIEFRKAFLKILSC

In the assay the target is D(3) dopamine receptor (Homo sapiens, UniProt P35462). The assay is described as follows: In vitro binding affinity towards Dopamine receptor D3 by using [3H]spiperone as radioligand. The method in brief: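 Radioligand competition binding at cloned mammalian receptors expressed in CHO-K1 cells, 1 h at room temperature, pH 7.4. Ligands: 5-HT1A [3H]-8-OH-DPAT 1 nM in 50 mM Tris/10 mM MgCl2. 5-HT1Dα/β [3H]-5-HT 1.7 nM in Tris/MgCl2/EDTA/0.1% ascorbate. D2 [3H]U86170 1 nM in 20 mM HEPES/10 mM MgSO4. D3 [3H]spiperone 0.5 nM in HEPES/MgCl2/NaCl/EDTA. Filtration and scintillation counting; 11 concentrations in duplicate; IC50 by nonlinear fit converted to Ki via Cheng–Prusoff.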

For `CCCN(CCC)[C@@H]1CCc2cccc(O)c2C1`, the affinity, expressed as Ki, was 179 nM.

By Ki is commonly meant a measure of affinity in units of concentration, obtained from inhibition or displacement. A low value points to a stronger hold on the target.
